Measured values from US20150045330A1, “PROPHYLACTIC AND THERAPEUTIC DRUG FOR AMYOTROPHIC LATERAL SCLEROSIS AND METHOD OF SCREENING THEREFOR” (priority 2012, published 2015).

Test system: ALS-MNs
Experiment: Influence of arsenite addition on HB9::GFP-positive ALS-MNs
Settings: 0.5 mM arsenite, 1 hr after addition, compared to non-addition group and normal MNs group; FIGS. 11D and E

arsenite
number of survival ALS-MNs: significantly decreased
